The numbers were not newly measured in patent publication US20080312581A1, “Peptosomes for Use in Acoustically Mediated Intracellular Drug Delivery in vivo” (Biovaluation & Analysis, Inc., priority 2007, published 2008), which cites them from elsewhere.

Details of series [1]: key to Observed Structure: V = vesicle; A = irregular aggregate; S = membrane sheet; F = fiber; M = micelle. Particulars: cited from earlier work.
The conditions of series [2]: pyrene fluorescence at 20° C.; cited from earlier work.

Consider “poly(L-lysine-HBr)60-block-poly(L-leucine)20 [Copolypeptide K60L20]”, for which the “Observed Structure” value in series [1] (assembled structure in solution, determined visually from DIC images and DLS measurements) is given as “V”. Also, the “Size (average assembly size)” value in series [1] (assembled structures in solution) is on record as 960 nm. Also, in series [1] (determined by DLS), the “PDI (assembly polydispersity)” value was 0.24. The CMC in series [2] is 670 nM.
